Protein sequences, listed by entry. Tags and fused reporters are not part of them.
UniProt P34913, whole entry: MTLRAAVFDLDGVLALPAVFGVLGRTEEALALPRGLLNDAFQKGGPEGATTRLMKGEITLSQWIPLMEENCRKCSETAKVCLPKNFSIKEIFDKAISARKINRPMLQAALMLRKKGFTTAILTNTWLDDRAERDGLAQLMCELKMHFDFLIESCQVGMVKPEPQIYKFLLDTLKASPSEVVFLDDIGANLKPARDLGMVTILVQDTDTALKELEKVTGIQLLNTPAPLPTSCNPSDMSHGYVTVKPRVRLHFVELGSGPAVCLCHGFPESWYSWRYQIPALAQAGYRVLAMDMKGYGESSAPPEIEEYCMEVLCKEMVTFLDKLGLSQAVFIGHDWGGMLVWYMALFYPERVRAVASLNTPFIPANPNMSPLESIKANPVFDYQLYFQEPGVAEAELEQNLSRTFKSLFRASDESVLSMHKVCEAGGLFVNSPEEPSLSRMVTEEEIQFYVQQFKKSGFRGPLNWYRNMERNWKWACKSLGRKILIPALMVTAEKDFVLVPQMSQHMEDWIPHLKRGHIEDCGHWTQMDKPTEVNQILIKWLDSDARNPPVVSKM

In ChEMBL document CHEMBL4616705, “Computer-Aided Fragment Growing Strategies to Design Dual Inhibitors of Soluble Epoxide Hydrolase and LTA4 Hydrolase” (ACS Med Chem Lett, 2020):

Molecular target: Bifunctional epoxide hydrolase 2 (Homo sapiens, UniProt P34913)
Assay: Inhibition of recombinant human full length sEH (1 to 555 residues) expressed in Escherichia coli BL21 DE3 cells assessed as reduction in 6-methoxynaphthaldehyde formation using PHOME as substrate at 10 uM incubated for 45 mins followed by substrate addition and measured for 45 mins by fluorescence based assay relative to control

inhibition: 4%
SMILES: O=C(CCc1ccc(OCc2ccccc2)cc1)NCC1CCN(CCc2ccccc2)C1 (stereo unspecified)
